# Measured values as given in PubChem BioAssay AID2066 (NMMLSC, 2009).
# Only a part is listed here, and it is no random draw. Activity calls are given as the source filed them.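 Rule for the calls: active = GFP response relative to DMSO above a set limit, near screen average plus 3 SD (cut at about 150% in these data); inconclusive = fewer than 70 cells counted for the yeast strain; inactive = the rest.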
# Experiment: yeast AGP1-GFP level changes, GLN3 branch – cell-based, multiplex flow cytometry, S. cerevisiae, MLPCN library, primary screen (AID 2066);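 note: median GFP channel fluorescence of the gated AGP1 strain per well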
# Conditions: 3 h, at 10 µM, hits give high values, GFP as percent of DMSO wells
row,SMILES,GFP response vs DMSO
1,CCOP(=O)(NC(=NC(C)c1ccccc1)NC(C)c1ccccc1)OCC (configuration not stated),inactive: 87.7%
2,O=P1(Nc2ccccn2)COc2ccccc2OC1,inactive: 102%
3,CCC1=CC2Cc3nc4ccc(Cl)cc4c(N)c3C(C1)C2 (configuration not stated),inactive: 96%
4,CN(CCCl)Cc1cc(Cl)c(NC2=NCCN2)c(Cl)c1,inactive: 107%
5,CCOP(=O)(Nc1ccc(C)cn1)OCC,inactive: 106%
6,CC(C)(C)C(=O)NC(Sc1ncccn1)C(Cl)(Cl)Cl (configuration not stated),inactive: 100%
7,Clc1n[nH]nc1-c1nn[nH][15n]1,inactive: 102%
8,COc1ccccc1CNC(=O)COC(=O)C(O)(c1ccccc1)c1ccccc1,inactive: 97.3%
9,CC(C)/C=N\N=C(\N)N[N+](=O)[O-],inactive: 101%
10,CN(C(=O)Cc1ccc(Cl)c(Cl)c1)[C@@H]1CCCC[C@H]1N1CCCC1,inactive: 85.5%
11,CC1(CBr)Cn2c(nc3ccccc3c2=O)S1 (configuration not stated),inactive: 100%
12,O=[As](O)(c1ccccc1Br)c1ccccc1Br,inactive: 97.2%
13,CC1CCC(C(C)C)C(OP(=O)(Nc2ccccn2)c2ccccc2)C1 (configuration not stated),inactive: 100%
14,Cc1ccc(C(=O)OC2CN3CCC2CC3)cc1 (configuration not stated),inactive: 96.5%
15,Cc1nn(-c2ccccc2)c2c1P(=O)(N1CCOCC1)N(C)C(c1ccccc1)=N2 (configuration not stated),inactive: 97.1%
16,CN(C)C1(CNC(=O)c2ccc(S(C)(=O)=O)cc2)CCCCC1,inactive: 104%
17,O=C(/C=C/c1ccccc1)OC1CN2CCC1CC2 (configuration not stated),inactive: 102%
18,O=P1(Nc2ncccn2)COc2ccccc2OC1,inactive: 107%
19,Nc1cccc([As](=O)(O)c2ccccc2)c1,inactive: 86.3%
20,O=P1(Nc2ccc(Br)cn2)COc2ccccc2OC1,inactive: 100%
21,NS(=O)(=O)c1cccc(NC(=O)COC(=O)C(O)(c2ccccc2)c2ccccc2)c1,inactive: 99.8%
22,O=[As](O)(c1cccs1)c1cccs1,inactive: 92.5%
23,Cc1ccc(OCC(=O)OC2CN3CCC2CC3)cc1 (configuration not stated),inactive: 99.6%
24,O=P(Nc1nccs1)(c1ccccc1)c1nc2ccccc2s1 (configuration not stated),inactive: 95.2%
25,O=P(Nc1nccs1)(Oc1ccccc1)Oc1ccccc1,inactive: 94.5%
26,CCOP1(=S)c2c(C)nn(CCC#N)c2N=C(c2ccccc2F)N1C (configuration not stated),inactive: 108%

row,SMILES,GFP response vs DMSO
1,CS(=O)(=O)c1cc([N+](=O)[O-])c2no[n+]([O-])c2c1,inactive: 101%
2,Nc1ccccc1[As](=O)(O)c1ccccc1,inactive: 99.9%
3,O=C(O)COc1ccc([As](=O)(O)O)cc1[N+](=O)[O-],inactive: 118%
4,NC(=O)Nc1ccc([As](=O)(O)O)cc1,inactive: 90.2%
5,CCOP1(=S)c2c(C)nn(CCC#N)c2N=C(c2ccc(F)cc2)N1C (configuration not stated),inactive: 99.9%
6,CN(C(=O)Cc1ccccc1)[C@@H]1CC[C@]2(CCCO2)C[C@H]1N1CCCC1,inactive: 88.2%
7,N#CCCN(C(=O)COC(=O)C(O)(c1ccccc1)c1ccccc1)c1ccc(F)cc1,inactive: 105%
8,CN(C(=O)Cc1ccc(Cl)c(Cl)c1)[C@H]1CC[C@@]2(CCCO2)C[C@@H]1N1CCCC1,inactive: 92.7%
9,CN(C)C(=O)c1cc([N+](=O)[O-])cc2c1-c1c(cc([N+](=O)[O-])cc1[N+](=O)[O-])C2=O,inactive: 81.7%
10,O=[N+]([O-])c1ccc2c(c1)nnn2O,inactive: 105%
11,O=C(OC1CN2CCC1CC2)c1ccc(Cl)cc1 (configuration not stated),inactive: 96.9%
12,CS(=O)(=O)c1ccc(Cl)c(NC(=O)COC(=O)C(O)(c2ccccc2)c2ccccc2)c1,inactive: 99.3%
13,COc1cc(C(=O)NCC2(N3CCOCC3)CCCCC2)cc(Cl)c1OC(C)C,inactive: 97.8%
14,O=[As](O)(O)c1cccnc1,inactive: 100%
15,O=[As](O)(c1cccc(O)c1)c1cccc(O)c1,inactive: 101%
16,Cc1cccc(OCC(=O)OC2CN3CCC2CC3)c1 (configuration not stated),inactive: 110%
17,Nc1cccc2c([As](=O)(O)O)cccc12,inactive: 106%
18,Cc1ccc(NCCc2c([N+](=O)[O-])cc([N+](=O)[O-])cc2[N+](=O)[O-])cc1,inactive: 99.3%
19,CCCOP(=S)(Nc1nc(N)cc(=O)[nH]1)OCCC,inactive: 103%
20,CCOP(=O)(Nc1cccc2ccccc12)OCC,inactive: 106%
21,COc1cc(C2NCCC3(OCCO3)C2(C)C)cc(OC)c1OC (configuration not stated),inactive: 100%
22,Cc1c2c(nc3ccccc13)SC(C(Cl)Cl)C2 (configuration not stated),inactive: 103%
23,Cc1cc(=O)[nH]c(N[N+](=O)[O-])n1,inactive: 96.6%
24,O=C(OC1CN2CCC1CC2)C12CC3CC(CC(C3)C1)C2 (configuration not stated),inactive: 111%
25,COc1cc(I)ccc1[As](=O)(O)O,inactive: 111%
26,COc1ccc2nc(NP(=O)(c3ccccc3)c3ccccc3)sc2c1,inactive: 104%

row,SMILES,GFP response vs DMSO
1,COc1ccc(N/C(=N/P(=O)(N2CCOCC2)N2CCOCC2)N2CCOCC2)cc1,inactive: 105%
2,COc1cc(C(=O)NCC2(N3CCOCC3)CCCCC2)ccc1OCC(C)C,inactive: 99.7%
3,C[As](=O)(O)c1cccc(C(=O)O)c1,inactive: 102%
4,O=[As](O)(c1ccc(O)cc1)c1ccccc1O,inactive: 104%
5,Cc1ccc(OP(=O)(Nc2ccc([N+](=O)[O-])cn2)Oc2ccc(C)cc2)cc1,inactive: 99.9%
6,Cc1ccc2nc3c(c(C)c2c1)CC(C(Cl)Cl)S3 (configuration not stated),inactive: 97.7%
7,ClCCSc1nnc(-c2cccnc2)o1,inactive: 93.2%
8,CC(C)c1ccc(OP(=O)(Nc2ccccn2)Oc2ccccc2F)cc1 (configuration not stated),inactive: 100%
9,O=[N+]([O-])c1cc([N+](=O)[O-])c(-c2ccn[nH]2)s1,inactive: 95.2%
10,CCN(CC)C(=S)SC(NC=O)C(Cl)(Cl)Cl (configuration not stated),inactive: 103%
11,CC(C)NC(=O)NP(=O)(Oc1ccccc1)Oc1ccccc1,inactive: 101%
12,CCOC(=O)Nc1ccc([As](=O)(O)O)c(O)c1,inactive: 97.9%
13,Cc1cc(SC(NC(=O)c2ccccc2)C(Cl)(Cl)Cl)nc(C(C)C)n1 (configuration not stated),inactive: 91%
14,CCOC(=O)Nc1cccc([As](=O)(O)O)c1,inactive: 101%
15,O=P(Nc1ccccn1)(c1cccc2ccccc12)c1cccc2ccccc12,inactive: 84.2%
16,Cc1cc(SC(NC=O)C(Cl)(Cl)Cl)ncn1 (configuration not stated),inactive: 101%
17,O=[N+]([O-])c1ccc(Nc2ccc(Oc3ccc([N+](=O)[O-])cc3[N+](=O)[O-])cc2)c([N+](=O)[O-])c1,inactive: 98.9%
18,COP1(=S)c2c(C)nn(CCC#N)c2N=C(c2ccc(F)cc2)N1C (configuration not stated),inactive: 111%
19,O=C(Nc1ccncc1[N+](=O)[O-])c1ccc([N+](=O)[O-])cc1[N+](=O)[O-],inactive: 105%
20,O=C(COc1ccccc1)OC1CN2CCC1CC2 (configuration not stated),inactive: 94.4%
21,O=C(OC1CN2CCC1CC2)c1cccc([N+](=O)[O-])c1 (configuration not stated),inactive: 98.8%
22,CCOC(=O)c1ccc(NC(=O)C(C)(CCl)SC)cc1 (configuration not stated),inactive: 101%
23,CCC(C)N(CC(C)C)C(=S)SC(NC(C)=O)C(Cl)(Cl)Cl (configuration not stated),inactive: 95.8%
24,COc1ccc(C2=NCC(CBr)S2)cc1 (configuration not stated),inactive: 107%
25,CCc1nc2c(n1)c1c(non1O)c1c2no[n+]1[O-],inactive: 109%
26,O=[N+]([O-])c1cc([N+](=O)[O-])c(CCNc2ccccc2)c([N+](=O)[O-])c1,inactive: 95.7%

row,SMILES,GFP response vs DMSO
1,Cc1ccc(NP(=O)(Oc2ccccc2)Oc2ccccc2)nc1,inactive: 89.5%
2,O=[N+]([O-])c1cccc2n[nH]nc12,inactive: 102%
3,CC(=O)N1C2C3N(C(C)=O)C1C1N(C(C)=O)C(C(N1C(C)=O)N3C(C)=O)N2C(C)=O,inactive: 103%
4,CCN(/C(=N/P(=O)(N1CCOCC1)N1CCOCC1)N1CCOCC1)c1ccc(OC)cc1,inactive: 94.2%
5,C[N+]1=C2C=CC=CC=C2SC12C([N+](=O)[O-])=CC([N+](=O)[O-])=C[C-]2[N+](=O)[O-] (configuration not stated),inactive: 99.5%
6,Nc1ccc([As](=O)(O)c2ccc(N)cc2)cc1,inactive: 110%
7,CC1CCN(C(=O)Oc2c(Cl)cc(Cl)c3cccnc23)CC1,inactive: 102%
8,CN(C)C(=O)OCCc1n(C)cc[n+]1C,inactive: 101%
9,CC(C)=N/N=C(\N)N[N+](=O)[O-],inactive: 105%
10,O=C(Nc1cc([As](=O)(O)O)ccc1O)c1ccccc1,inactive: 78.5%
11,O=[N+]([O-])c1ncn(CCn2ncnc2[N+](=O)[O-])n1,inactive: 97.1%
12,CC(C)(C)C(=O)NC(Sc1ccncn1)C(Cl)(Cl)Cl (configuration not stated),inactive: 93.2%
13,O=C(O)CNc1ccc([As](=O)(O)O)cc1,inactive: 96.1%
14,O=[N+]([O-])c1cccc(NC2=NCC(CBr)S2)c1 (configuration not stated),inactive: 110%
15,O=P(Nc1nc2ccc(Cl)cc2s1)(c1ccccc1)c1ccccc1,inactive: 99.8%
16,O=C(O)c1ccccc1[As](=O)(O)O,inactive: 94%
17,CC(=O)Nc1ccc([As](=O)(O)O)cc1,inactive: 96.4%
18,CN(C(=O)Cc1ccc(Cl)c(Cl)c1)[C@H]1CCCC[C@@H]1N1CCCC1,inactive: 96.8%
19,CCOP(=O)(Nc1ccccc1)OCC,inactive: 97.9%
20,Cc1cc(SC(NC(=O)c2ccc(F)cc2)C(Cl)(Cl)Cl)ncn1 (configuration not stated),inactive: 98.8%
21,O=[N+]([O-])c1cc([N+](=O)[O-])c(CCN2CCOCC2)c([N+](=O)[O-])c1,inactive: 100%
22,Nc1cccc2ccc([As](=O)(O)O)cc12,inactive: 95.9%
23,CCN(N=Nc1nonc1N)c1nonc1N,inactive: 99.4%
24,Cc1ccc(N/C(=N/P(=O)(N2CCOCC2)N2CCOCC2)N2CCOCC2)cc1,inactive: 96.8%
